CC50 data for one substance are collected here from patent US7407969B2, “Respiratory syncytial virus replication inhibitors” (Janssen Pharmaceutica, N.V., priority 1999, dated 2008).

This series concerns HeLa cells. Description: Cytotoxicity (CC50) in mock-infected HeLa cells, tetrazolium (MTT) colorimetric assay. The following applies: 7 days. The series is classed as cell-based. On the procedure:
The percent protection against cytopathology caused by viruses (antiviral activity or IC50) achieved by tested compounds and their cytotoxicity (CC50) were both calculated from dose-response curves.
Automated tetrazolium-based […] assays were used for determination of IC50 and CC50 of test compounds. Flat-bottom, 96-well plastic microtiter trays were filled with 180 μl of Eagle's Basal Medium, supplemented with 5% FCS (0% for FLU) and 20 mM Herpes buffer. Subsequently, stock solutions (7.8×final test concentration) of compounds were added in 45 μl volumes to a series of triplicate wells so as to allow simultaneous evaluation of their effects on virus- and mock-infected cells. Five five-fold dilutions were made directly in the microtiter trays using a robot system. Untreated virus controls, and HeLa cell controls were included in each test. Approximately 100 TCID50 Respiratory Syncytial Virus was added to two of the three rows in a volume of 50 μl. […] Finally, the absorbances were read in an eight-channel computer-controlled photometer (Multiskan MCC, Flow Laboratories) at two wavelengths (540 and 690 nm). The absorbance measured at 690 nm was automatically subtracted from the absorbance at 540 nm, so as to eliminate the effects of non-specific absorption.

The CC50 is the concentration giving 50% cytotoxicity. Read a high CC50 as lower toxicity to the cells. For the substance “(±)-N-[1-(2-amino-3-methylbutyl)-4-piperidinyl]-3-(quinolinylmethyl)-3H-imidazo[4,5-b]pyridin-2-amine [Compound 42]”, the CC50 is greater than 10.1 µM.
